ChEMBL document CHEMBL4765234, “The Discovery, Preclinical, and Early Clinical Development of Potent and Selective GPR40 Agonists for the Treatment of Type 2 Diabetes Mellitus (LY2881835, LY2922083, and LY2922470)” (J Med Chem, 2016)
The source made the active and inactive calls. No cut-off for these calls is given here.

Sequences of proteins named here, by UniProt entry; tags and fusion partners are left off.
UniProt Q8K3T4, whole entry: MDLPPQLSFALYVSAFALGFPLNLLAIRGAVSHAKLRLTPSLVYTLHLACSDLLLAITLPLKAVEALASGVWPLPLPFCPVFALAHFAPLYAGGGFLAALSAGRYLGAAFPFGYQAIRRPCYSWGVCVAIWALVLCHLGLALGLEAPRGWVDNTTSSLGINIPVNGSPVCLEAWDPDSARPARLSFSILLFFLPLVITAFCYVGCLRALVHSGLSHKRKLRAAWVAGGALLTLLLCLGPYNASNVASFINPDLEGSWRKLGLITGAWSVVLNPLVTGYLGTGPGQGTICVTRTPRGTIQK
UniProt Q76JU9, whole entry: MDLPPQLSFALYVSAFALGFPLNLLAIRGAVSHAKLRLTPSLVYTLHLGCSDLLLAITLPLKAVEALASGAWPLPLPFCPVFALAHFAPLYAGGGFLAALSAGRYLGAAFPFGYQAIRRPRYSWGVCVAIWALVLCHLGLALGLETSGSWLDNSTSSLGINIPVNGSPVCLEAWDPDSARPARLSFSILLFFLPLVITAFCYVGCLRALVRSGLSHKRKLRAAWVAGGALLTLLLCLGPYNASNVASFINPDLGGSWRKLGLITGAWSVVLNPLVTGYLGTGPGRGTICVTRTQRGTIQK
UniProt O14842, whole entry: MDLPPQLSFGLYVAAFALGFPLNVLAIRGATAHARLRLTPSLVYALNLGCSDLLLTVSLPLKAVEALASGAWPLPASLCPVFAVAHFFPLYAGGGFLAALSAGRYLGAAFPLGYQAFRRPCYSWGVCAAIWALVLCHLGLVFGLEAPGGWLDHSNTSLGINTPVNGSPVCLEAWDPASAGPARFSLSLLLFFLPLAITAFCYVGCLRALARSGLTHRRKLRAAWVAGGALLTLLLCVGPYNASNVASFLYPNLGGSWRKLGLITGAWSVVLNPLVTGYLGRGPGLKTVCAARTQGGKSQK

How the values were obtained:
[1] = target: Free fatty acid receptor 1 (Rattus norvegicus) (UniProt Q8K3T4); assay: Agonist activity at Prolink-tagged rat GPR40 fused with EA-tagged beta-arrestin expressed in human U2OS cells assessed as induction of beta-arrestin recruitment measured after 90 mins by beta-galactosidase based PathHunter assay relative to control; assay type: cell-based; settings: filed as agonist
In short: (§1)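 PathHunter β-gal complementation. Cells were incubated overnight at 5000/well in medium with 1% heat-inactivated FBS. Compound was added as a 20-point 2-fold series from a top final of 100 μM (1% DMSO) for 90 min at 37 °C, followed by detection reagents and chemiluminescence read after 1 h at rt.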

[2] = target: Free fatty acid receptor 1 (Rattus norvegicus) (UniProt Q8K3T4); assay: Agonist activity at GPR40 in Sprague-Dawley rat pancreatic islets assessed as induction of glucose-mediated insulin secretion measured after 90 mins in EBSS buffer by ELISA; assay type: tissue-based; settings: Pancreatic islet, filed as agonist
In short: (§2)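 Glucose-dependent insulin secretion in mouse MIN6 cells or rat islet cells, scored as secretion above the glucose-alone level.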

[3] = target: Free fatty acid receptor 1 (Mus musculus) (UniProt Q76JU9); assay: Agonist activity at GPR40 in mouse MIN6 cells assessed as induction of glucose-mediated insulin secretion incubated for 2 hrs by ELISA; assay type: cell-based; settings: filed as agonist; in short: as §2
[4] = target: Free fatty acid receptor 1 (Mus musculus) (UniProt Q76JU9); assay: Agonist activity at Prolink-tagged mouse GPR40 fused with EA-tagged beta-arrestin expressed in human U2OS cells assessed as induction of beta-arrestin recruitment measured after 90 mins by beta-galactosidase based PathHunter assay relative to control; assay type: cell-based; settings: filed as agonist; in short: as §1
[5] = target: T1, Free fatty acid receptor 1 (Homo sapiens, UniProt O14842); assay: Agonist activity at human recombinant full length GPR40 overexpressed in human HEK293 cells assessed as increase in inositol phosphate accumulation in presence of terbium cryptate-labeled anti IP1/d2-labelled IP1 measured after 120 mins by HTRF assay relative to AMG837; assay type: functional, cell-based; settings: filed as agonist
In short: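 HEK293 hGPR40 cells (20K/well) were cultured overnight, washed, and held in IP1 stimulation buffer. IP-1 was measured by competitive HTRF immunoassay with terbium cryptate anti-IP1 mAb and d2-labelled IP1.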

[6] = target: T1, Free fatty acid receptor 1; assay: Displacement of [3H]-(S)-2-(6-((2',6'-dimethyl-4'-(3-(methylsulfonyl)propoxy)biphenyl-3-yl)methoxy)-2,3-dihydrobenzofuran-3-yl)acetic acid from human recombinant full-length GPR40 expressed in human HEK293 cell membrane assessed as residence time by radioligand competitive assay; assay type: cell membranes; settings: filed as agonist
In short: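 Residence time came from competitive association kinetics. [3H]-radioligand binding to human GPR40 HEK293 membranes (5 μg, rt, Tris/Ca/Mg/0.1% BSA buffer) was measured at time points over 0–3 h, with and without several concentrations of unlabeled test compound. Fits used association and dissociation rates of the radioligand from independent kinetic experiments.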

[7] = target: T1, Free fatty acid receptor 1; assay: Agonist activity at human recombinant full length GPR40 overexpressed in human HEK293 cells assessed as increase in intracellular calcium level measured over 3 mins by calcium 4 dye based FLIPR assay relative to 100 uM linoleic acid; assay type: functional, cell-based; settings: filed as agonist
In short: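 HEK293 cells overexpressing hGPR40 (25K/well) were cultured overnight in DMEM/F12 with 0.2% FBS and geneticin. Compound was tested at 40 μM–0.1 nM final (20-point, 1% DMSO), and FLIPR fluorescence was read over 3 min.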

[8] = target: T1, Free fatty acid receptor 1; assay: Agonist activity at human recombinant full-length Prolink-tagged GPR40 fused with EA-tagged beta-arrestin expressed in human HEK293 cells assessed as induction of beta-arrestin recruitment measured after 90 mins by beta-galactosidase based PathHunter assay relative to control; assay type: cell-based; settings: filed as agonist; in short: as §1
[9] = Clearance in human hepatocytes by LC-MS/MS analysis; assay type: ADME, cell-based, Hepatocyte

| Emax [1] [%] | Activity [2] | Activity [3] | Emax [4] [%] | Emax [5] [%] | TIME [6] [h] | Emax [7] [%] | Emax [8] [%] | SMILES | CLH [9] [h⁻¹] |
| --- | --- | --- | --- | --- | --- | --- | --- | --- | --- |
| 97 | Active | Active | 117 | 145 | 1.27 | 67 | 119 | Cc1cc(OCCCS(C)(=O)=O)cc(C)c1-c1cccc(COc2ccc3c(c2)OC[C@H]3CC(=O)O)c1 |  |
|  |  |  |  |  |  |  |  | CC#C[C@@H](CC(=O)O)c1ccc(OCc2ccc(CN3CCC4(C=Cc5ccccc54)CC3)cc2)cc1 [LY2881835] | 0.28 |
